The numbers were not newly measured in patent US20050100577A1, “Expandable medical device with beneficial agent matrix formed by a multi solvent system” (priority 2003, published 2005), which cites them from elsewhere.

For this data set the following is noted: cited from earlier work.

As to insulin, the water solubility entry is “about 20 mg/ml”.
